What was measured:
Assay type in all cases: biochemical
[1] = target: LRRK2 (Homo sapiens, UniProt Q5S007); assay: LRRK2 WT assay (Assay B, radiometric 33P-ATP filter binding); details: Assay B (values marked *)
Experimental: LRRK2(human) is incubated with 50 mM HEPES pH 8.0, 0.2 mM EDTA, 0.01% Brij-35, 1% (w/v) BSA, 5 mM DTT, 250 Mm […], 10 mM Magnesium acetate and [[…]]-ATP (specific activity and concentration as required).
The reaction is initiated by the addition of the Mg/ATP mix.

Chains of the proteins cited; added tags and fusions are not shown.
UniProt Q5S007, whole entry G2019S: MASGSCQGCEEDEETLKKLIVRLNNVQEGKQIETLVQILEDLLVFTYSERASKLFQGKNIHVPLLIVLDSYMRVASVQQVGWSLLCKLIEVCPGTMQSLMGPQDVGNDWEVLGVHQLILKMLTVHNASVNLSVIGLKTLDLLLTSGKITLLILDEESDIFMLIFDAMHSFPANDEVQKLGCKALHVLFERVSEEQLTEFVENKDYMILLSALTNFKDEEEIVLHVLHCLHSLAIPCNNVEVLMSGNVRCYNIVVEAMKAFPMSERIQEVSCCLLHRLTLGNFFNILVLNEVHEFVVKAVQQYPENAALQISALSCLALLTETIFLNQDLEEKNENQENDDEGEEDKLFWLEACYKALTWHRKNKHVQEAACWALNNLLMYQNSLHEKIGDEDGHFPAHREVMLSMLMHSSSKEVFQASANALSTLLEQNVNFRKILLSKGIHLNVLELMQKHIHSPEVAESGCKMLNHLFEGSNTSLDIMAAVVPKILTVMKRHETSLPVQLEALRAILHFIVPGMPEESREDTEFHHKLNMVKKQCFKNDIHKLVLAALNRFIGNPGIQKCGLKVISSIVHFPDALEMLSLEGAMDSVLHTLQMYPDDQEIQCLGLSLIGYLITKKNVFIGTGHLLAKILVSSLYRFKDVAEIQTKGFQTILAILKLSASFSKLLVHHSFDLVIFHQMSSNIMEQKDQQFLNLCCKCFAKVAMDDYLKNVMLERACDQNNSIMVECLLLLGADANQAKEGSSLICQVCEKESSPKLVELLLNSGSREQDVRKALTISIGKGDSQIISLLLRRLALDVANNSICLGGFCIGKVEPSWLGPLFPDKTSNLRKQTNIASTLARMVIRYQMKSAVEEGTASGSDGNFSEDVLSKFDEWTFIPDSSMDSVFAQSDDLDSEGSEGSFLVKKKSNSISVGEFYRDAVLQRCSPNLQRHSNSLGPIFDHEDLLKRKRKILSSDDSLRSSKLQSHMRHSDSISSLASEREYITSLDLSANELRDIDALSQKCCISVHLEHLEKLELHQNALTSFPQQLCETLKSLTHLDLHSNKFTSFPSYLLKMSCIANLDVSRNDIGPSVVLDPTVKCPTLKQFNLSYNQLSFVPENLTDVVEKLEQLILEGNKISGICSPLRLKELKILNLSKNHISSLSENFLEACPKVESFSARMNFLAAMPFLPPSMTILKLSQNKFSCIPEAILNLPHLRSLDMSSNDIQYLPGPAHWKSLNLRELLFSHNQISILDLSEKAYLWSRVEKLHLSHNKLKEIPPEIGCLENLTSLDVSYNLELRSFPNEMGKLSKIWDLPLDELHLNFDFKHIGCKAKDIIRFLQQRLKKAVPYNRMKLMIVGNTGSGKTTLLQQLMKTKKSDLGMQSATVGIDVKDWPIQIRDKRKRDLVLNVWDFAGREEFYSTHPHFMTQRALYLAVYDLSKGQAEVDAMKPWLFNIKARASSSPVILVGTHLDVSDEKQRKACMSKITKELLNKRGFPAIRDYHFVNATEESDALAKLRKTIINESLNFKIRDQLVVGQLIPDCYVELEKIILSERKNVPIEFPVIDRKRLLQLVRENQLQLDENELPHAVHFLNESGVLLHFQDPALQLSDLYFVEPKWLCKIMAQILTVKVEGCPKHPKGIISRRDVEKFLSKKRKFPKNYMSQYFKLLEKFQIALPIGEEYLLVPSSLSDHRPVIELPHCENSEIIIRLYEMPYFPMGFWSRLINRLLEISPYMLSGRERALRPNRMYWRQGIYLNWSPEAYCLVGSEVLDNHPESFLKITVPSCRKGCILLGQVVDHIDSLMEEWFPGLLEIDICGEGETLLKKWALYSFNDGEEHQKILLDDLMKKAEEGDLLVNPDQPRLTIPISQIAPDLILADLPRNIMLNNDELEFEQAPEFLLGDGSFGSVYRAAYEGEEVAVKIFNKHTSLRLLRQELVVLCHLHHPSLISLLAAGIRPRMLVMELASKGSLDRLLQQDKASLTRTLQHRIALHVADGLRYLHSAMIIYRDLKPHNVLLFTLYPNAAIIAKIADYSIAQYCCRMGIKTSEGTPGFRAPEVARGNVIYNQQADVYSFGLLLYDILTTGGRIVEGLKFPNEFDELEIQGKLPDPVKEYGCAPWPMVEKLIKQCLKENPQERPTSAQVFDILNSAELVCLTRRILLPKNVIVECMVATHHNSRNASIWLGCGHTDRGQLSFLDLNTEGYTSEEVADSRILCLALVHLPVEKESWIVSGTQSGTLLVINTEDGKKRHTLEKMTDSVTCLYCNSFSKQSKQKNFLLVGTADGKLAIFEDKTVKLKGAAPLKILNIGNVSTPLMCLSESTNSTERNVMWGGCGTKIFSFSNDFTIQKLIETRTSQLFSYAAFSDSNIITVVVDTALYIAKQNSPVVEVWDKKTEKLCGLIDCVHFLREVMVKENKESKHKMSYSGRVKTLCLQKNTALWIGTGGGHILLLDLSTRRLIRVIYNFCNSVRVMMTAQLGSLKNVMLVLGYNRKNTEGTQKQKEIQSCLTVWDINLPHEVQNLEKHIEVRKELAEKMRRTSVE

[2] = target: T1, full-length LRRK2 G2019S (Homo sapiens, UniProt Q5S007, G2019S); assay: LRRK2-G2019S kinase activity assay (Lanthascreen TR-FRET); details: 1.1 mM ATP
T1 construct: DYKDDDDK-tagged full-length LRRK2 G2019S protein; DYKDDDDK (FLAG)
Experimental: (§1) The measurements of the activities were made using a LRRK2-G2019S(human) Kinase activity assay as described hereunder. The potency of compounds was evaluated in vitro using the Lanthascreen® technology (ThermoFisher Scientific).
(§2) The biological assay requires the DYKDDDDK-tagged full-length LRRK2 G2019S protein, the fluorescent peptide substrate named LRRKtide or ERM (RLGRDKYKTLRQIRQ supplied by PolyPeptide Group), the ATP substrate, and different concentrations of test compounds. In a typical experiment, the reaction assay buffer contains 50 mM Tris pH8.2, 1 mM EGTA, 2.5 mM MgCl2, 0.05% Triton X100, 0.15% BSA and 1 mM DTT. The detection of the assay is performed using 1 nM Terbium labeled anti-phospho-LRRKtide (ThermoFisher Scientific) diluted in a TR-FRET buffer (ThermoFisher Scientific).
The experimental procedure was performed with Greiner small volume® 384-well. […]
(§3) The kinase reaction was initiated by addition of the ATP/LRRKtide substrate mix diluted in the reaction assay buffer. […] Plates are incubated for at least 30 minutes at room temperature and read on an Envision™ multimode plate reader (PerkinElmer) with LanthaScreen™. The TR-FRET 520:495 nm emission ratio was calculated and used to determine the IC50 value from a dose response curve fit to the 4-parameter logistic equation. […]

[3] = target: T2, full-length LRRK2 wild type (Homo sapiens, UniProt Q5S007); assay: LRRK2 WT assay (Assay A, Lanthascreen TR-FRET, 500 uM ATP); details: Assay A (values without *)
T2 construct: DYDDDDK tagged full-length LRRK2 wild type is used
Experimental: as §1
as §2, with “The detection of the assay is performed using 1 nM Terbium labeled anti-phospho-LRRKtide (ThermoFisher Scientific) diluted in a TR-FRET buffer (ThermoFisher Scientific).” left out
as §3
The kinase activity of LRRK2(human) WT was evaluated according to same method described in LRRK2-G2019 kinase activity assay as described above, except DYDDDDK tagged full-length LRRK2 wild type is used instead of DYKDDDDK-tagged full-length LRRK2 G2019S, and 500 uM ATP is used in WT assay instead of 1.1 mM ATP.

IC50 [1] [µM]	IC50 [2] [µM]	IC50 [3] [µM]	Compound
0.02	–	–	Cn1cc(Nc2ncc3cc(C#N)n(C4CCOCC4)c3n2)c(OC2COC2)n1 [Example 80, 2-((1-Methyl-3-(oxetan-3-yloxy)-1 H-pyrazol-4-yl)amino)-7-(tetrahydro-2H-pyran-4-yl)-7H-pyrrolo[2,3-d]pyrimidine-6-carbonitrile]
–	0.187	0.125	[2H]C([2H])([2H])n1cc(Nc2ncc3cc(C#N)n(C4CCOCC4)c3n2)c(OC2COC2)n1 [Example 123, 2-((1-(Methyl-d3)-3-(oxetan-3-yloxy)-1 H-pyrazol-4-yl)amino)-7-(tetrahydro-2H-pyran-4-yl)-7H-pyrrolo[2,3-d]pyrimidine-6-carbonitrile]

— patent publication US20240383901A1, “SUBSTITUTED PYRROLO[2,3-D]PYRIMIDINES, THEIR PREPARATION AND THEIR THERAPEUTIC APPLICATION” (SANOFI, priority 2021, published 2024)
